Only a part is listed here, and it is no random draw. Calls of active or inactive are those of the source.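 Rule for the calls: active = activation above the mean of all tested compounds plus 3 SD, set per screening run (cut at about 8.8% in these data); inactive = the rest.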
target: Wee1-like protein kinase (Homo sapiens) (UniProt P30291); test: Wee1 degradation inhibitors, primary screen, cell-based, HeLa, Wee1K328M-luciferase, luminescence (AID 1321); details: HeLa Luc-Wee1K328M stability, at 5 µM, stronger effect = higher value, 100% = proteasome inhibitor MG132 effect;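 note: cells exposed to compound for 20 h before luminescence read; 0% = DMSO alone and 100% = MG132 at 30 µM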

Sequences of proteins named here, by UniProt entry; tags and fusion partners are left off. A change or cut given only in a name is not applied to a line headed by its entry.
UniProt P30291: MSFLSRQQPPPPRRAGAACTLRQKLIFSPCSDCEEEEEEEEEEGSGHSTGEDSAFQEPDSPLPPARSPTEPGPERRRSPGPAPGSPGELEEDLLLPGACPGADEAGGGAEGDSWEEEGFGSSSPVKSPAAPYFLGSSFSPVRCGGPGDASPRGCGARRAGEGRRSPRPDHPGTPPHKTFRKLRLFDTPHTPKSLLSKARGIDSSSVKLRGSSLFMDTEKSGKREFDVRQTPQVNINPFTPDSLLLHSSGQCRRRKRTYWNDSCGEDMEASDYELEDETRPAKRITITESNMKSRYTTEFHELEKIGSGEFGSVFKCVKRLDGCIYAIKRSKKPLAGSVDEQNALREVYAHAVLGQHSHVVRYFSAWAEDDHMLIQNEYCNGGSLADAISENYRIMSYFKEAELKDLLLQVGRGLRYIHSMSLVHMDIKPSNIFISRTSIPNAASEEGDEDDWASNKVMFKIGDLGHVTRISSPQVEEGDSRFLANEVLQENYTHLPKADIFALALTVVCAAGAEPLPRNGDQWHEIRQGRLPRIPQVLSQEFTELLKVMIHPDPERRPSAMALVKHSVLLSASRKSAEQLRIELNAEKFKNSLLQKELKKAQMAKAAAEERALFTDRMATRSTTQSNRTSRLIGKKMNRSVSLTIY

Structure (SMILES)	reporter increase
O=c1c2cc([N+](=O)[O-])ccc2[nH]c2c([N+](=O)[O-])cc([N+](=O)[O-])cc12	inactive: 0.56%
CN(C)C(=O)Oc1noc2ccccc12	inactive: -0.32%
Cc1ccccc1OP(=O)(Nc1ccccn1)Oc1ccccc1C	inactive: 3.08%
O=C(NC1CCS(=O)(=O)C1)NP(=S)(Oc1ccccc1)Oc1ccccc1 (configuration not stated)	inactive: -2.37%
CCNC(=S)/N=C(\N)N[N+](=O)[O-]	inactive: -0.43%
CCOC(=O)NC(Sc1ccccc1)C(Cl)(Cl)Cl (configuration not stated)	inactive: -1.23%
Cc1ccc(NP(=O)(Oc2cccc(C)c2)Oc2cccc(C)c2)nc1	inactive: 1.12%
c1ccc(-c2nn[nH]n2)c(-c2nn[nH]n2)c1	inactive: -0.08%
CC(=O)Nc1ccc(Oc2c([N+](=O)[O-])cc([N+](=O)[O-])cc2[N+](=O)[O-])cc1	inactive: -0.29%
CC(=O)Nc1ccc([As](=O)(O)O)c(O)c1	inactive: -1.81%
CCOc1ccc(C2=NCC(CBr)S2)cc1 (configuration not stated)	inactive: 0.95%
O=P1(Nc2nc3ccc(Cl)cc3s2)COc2ccccc2O1 (configuration not stated)	inactive: -2.38%
CC(C)(C)C(=O)NC(Sc1ccccc1)C(Cl)(Cl)Cl (configuration not stated)	inactive: 0.56%
CCCOP(=S)(Nc1nc(N)cc(=O)[nH]1)OCCC	inactive: 0.31%
Nc1cccc2c([As](=O)(O)O)cccc12	inactive: 0.95%
Cc1ccc(NCCc2c([N+](=O)[O-])cc([N+](=O)[O-])cc2[N+](=O)[O-])cc1	inactive: 0.63%
CCOP(=O)(Nc1cccc2ccccc12)OCC	inactive: -2.39%
COc1cc(C2NCCC3(OCCO3)C2(C)C)cc(OC)c1OC (configuration not stated)	inactive: -0.87%
O=[As](O)(O)c1cccnc1	inactive: 0.05%
COc1cc(C(=O)NCC2(N3CCOCC3)CCCCC2)cc(Cl)c1OC(C)C	inactive: 3.92%
O=C(OC1CN2CCC1CC2)c1ccc(Cl)cc1 (configuration not stated)	inactive: -1.66%
Cc1cccc(OCC(=O)OC2CN3CCC2CC3)c1 (configuration not stated)	inactive: 0.06%
O=[As](O)(c1cccc(O)c1)c1cccc(O)c1	inactive: 2.9%
O=[N+]([O-])c1ccc2c(c1)nnn2O	inactive: -1.04%
CCOP1(=S)c2c(C)nn(CCC#N)c2N=C(c2ccc(F)cc2)N1C (configuration not stated)	inactive: -0.96%
CS(=O)(=O)c1cc([N+](=O)[O-])c2no[n+]([O-])c2c1	inactive: -1.92%

Structure (SMILES)	reporter increase
O=P(Nc1nccs1)(Oc1ccccc1)Oc1ccccc1	inactive: 1.06%
O=P(Nc1nccs1)(c1ccccc1)c1nc2ccccc2s1 (configuration not stated)	inactive: 1.98%
CCOP1(=S)c2c(C)nn(CCC#N)c2N=C(c2ccccc2F)N1C (configuration not stated)	inactive: -0.29%
O=C(O)COc1ccc([As](=O)(O)O)cc1[N+](=O)[O-]	inactive: 4.42%
Nc1ccccc1[As](=O)(O)c1ccccc1	inactive: -2.7%
O=P1(Nc2ncccn2)COc2ccccc2OC1	inactive: 0.38%
O=[As](O)(c1cccs1)c1cccs1	inactive: -1.7%
Cc1ccc(OCC(=O)OC2CN3CCC2CC3)cc1 (configuration not stated)	inactive: 3.77%
O=P1(Nc2ccc(Br)cn2)COc2ccccc2OC1	inactive: 1.06%
Nc1cccc([As](=O)(O)c2ccccc2)c1	inactive: -1.07%
CC1CCC(C(C)C)C(OP(=O)(Nc2ccccn2)c2ccccc2)C1 (configuration not stated)	inactive: 1.12%
Cc1nn(-c2ccccc2)c2c1P(=O)(N1CCOCC1)N(C)C(c1ccccc1)=N2 (configuration not stated)	inactive: 0.99%
O=C(/C=C/c1ccccc1)OC1CN2CCC1CC2 (configuration not stated)	inactive: -3.33%
CN(C)C1(CNC(=O)c2ccc(S(C)(=O)=O)cc2)CCCCC1	active: 14.7%
CC1(CBr)Cn2c(nc3ccccc3c2=O)S1 (configuration not stated)	inactive: -0.23%
O=[As](O)(c1ccccc1Br)c1ccccc1Br	inactive: 0.18%
CN(C(=O)Cc1ccc(Cl)c(Cl)c1)[C@@H]1CCCC[C@H]1N1CCCC1	inactive: -1.8%
CC(C)/C=N\N=C(\N)N[N+](=O)[O-]	inactive: 3.83%
CCOP(=O)(Nc1ccc(C)cn1)OCC	inactive: -0.98%
O=P1(Nc2ccccn2)COc2ccccc2OC1	inactive: -0.92%
CC(C)(C)C(=O)NC(Sc1ncccn1)C(Cl)(Cl)Cl (configuration not stated)	inactive: 0.11%
Clc1n[nH]nc1-c1nn[nH][15n]1	inactive: -3.04%
CCOC(=O)c1ccc(NC(=O)C(C)(CCl)SC)cc1 (configuration not stated)	inactive: -1.18%
CCC(C)N(CC(C)C)C(=S)SC(NC(C)=O)C(Cl)(Cl)Cl (configuration not stated)	inactive: -1.64%
COP1(=S)c2c(C)nn(CCC#N)c2N=C(c2ccc(F)cc2)N1C (configuration not stated)	inactive: 4.44%
O=C(COc1ccccc1)OC1CN2CCC1CC2 (configuration not stated)	inactive: -3.57%
